The values below come from patent US20260176343A1 (UCL BUSINESS, published 2026).

Holding throughout (assay): cell-based or functional assay
The target of experiment [1] is FVIII-mimetic bispecific tandem-scFv containing the human Factor V cleavage site WYLRSNNG
In experiment [2] the target is FVIII-mimetic bispecific tandem-scFv containing the thrombin-sensitive peptide LTPRGVRL
In experiment [3] the target is FVIII-mimetic bispecific tandem-scFv containing the thrombin-sensitive peptide LTPRLVRL

“human α-thrombin (from UniProt P00734 328-622) (enzyme)”: the residual FVIII mimetic activity after 20 min of exposure to α-thrombin (% retained FVIII mimetic activity) in experiment [1] was determined as 88.7. Further, the residual FVIII mimetic activity after 20 min of exposure to α-thrombin (% residual activity) in experiment [2] was 17.5. Besides, the residual FVIII mimetic activity after 20 min of exposure to α-thrombin (% residual FVIII mimetic activity) in experiment [3] is 56.7.
